Measured values taken from patent US20070269494A1, “Compositions and methods for enhancing active agent absorption” (Nexus Pharma, Inc., priority 2006, published 2007).

System: Sprague-Dawley rats
Experiment: Blood glucose depression by intracolonically administered bovine pancreatic insulin with absorption enhancer
Conditions: enhancer dose 25 mg/Kg; insulin 7 mg/Kg; procedure of Example 12

SMILES: CCCCCCNC(=O)c1ccc(NC(=O)CCC(=O)O)cc1O [Example 16]
- 50% depression at 60 min. (blood glucose from basal level): positive
